The values below come from patent US20030032003A1, “IN VIVO SELECTION” (priority 2000, published 2003).

The data set has as its system Hprt +/+ wildtype 129/J mice. In words: Acute toxicity of 6TG, approximate lethal dose.
[1] abbreviates: Hprt +/+, 25 mg/kg single i.p., 14 days.
Setting [2] is: Hprt +/+, 50 mg/kg single i.p., 14 days.
Where [3] appears, read: Hprt +/+, 100 mg/kg single i.p., 14 days.
The mark [4] stands for this setting: Hprt +/+, 150 mg/kg single i.p., 14 days.
[5] abbreviates: Hprt +/+, 225 mg/kg single i.p., 14 days.
Where [6] appears, read: Hprt +/+, 338 mg/kg single i.p., 14 days.
Where [7] appears, read: Hprt +/+, 508 mg/kg single i.p., 14 days.
[8] abbreviates: Hprt +/+, 720 mg/kg single i.p., 14 days.

Consider `Nc1nc(S)c2[nH]cnc2n1` [6TG, 2-amino-6-merkaptopurine], for which the “body weight, percentage of the body weight before the experiment” value runs as follows: under setting [1], 93%; under setting [2], 65%; under setting [3], 69%; under setting [4], 76%; under setting [5], 80%; under setting [6], 88%. The “body weight, percentage of the body weight before the experiment” value is, setting by setting: under setting [7], 85%; under setting [8], 80%. Besides, the survival entry is recorded as “surv (surv, animals survived the 14 days period)” under setting [1]; 13 days under setting [2]; 10.5 days under setting [3]; 8.5 days under setting [4]; 7 days under setting [5]; 4 days under setting [6]. Moreover, the survival by setting is: under setting [7], 4 days; under setting [8], 4 days; (mice treated with 10 times the approximate lethal dose (Table 6)) 4 days. Further, the “decrease in body weight” value (wild type mice, 25 mg/kg sublethal dose) was 7%. Moreover, the approximate lethal dose (wildtype mice, single i.p.) came out at 50 mg/kg.
